The assay has as its target T1, Bovine serum albumin (BSA, fraction V) (Bos taurus, UniProt P02769).
T1 construct: gene ALB; mature native serum albumin, 585 residues, fraction V from Roche; heat/acid-induced amyloid aggregation
Put plainly: ThT fluorescence, inhibition of BSA amyloid aggregation. It is filed as biochemical. The settings on record: BSA 300 μmol/L, 42°C per IC50 methods (65°C in kinetic assay), glycine buffer pH 3, NaCl 100 mM.

Sequences of proteins named here, by UniProt entry; tags and fusion partners are left off. Residues count along the entry.
UniProt P02769, 25-607: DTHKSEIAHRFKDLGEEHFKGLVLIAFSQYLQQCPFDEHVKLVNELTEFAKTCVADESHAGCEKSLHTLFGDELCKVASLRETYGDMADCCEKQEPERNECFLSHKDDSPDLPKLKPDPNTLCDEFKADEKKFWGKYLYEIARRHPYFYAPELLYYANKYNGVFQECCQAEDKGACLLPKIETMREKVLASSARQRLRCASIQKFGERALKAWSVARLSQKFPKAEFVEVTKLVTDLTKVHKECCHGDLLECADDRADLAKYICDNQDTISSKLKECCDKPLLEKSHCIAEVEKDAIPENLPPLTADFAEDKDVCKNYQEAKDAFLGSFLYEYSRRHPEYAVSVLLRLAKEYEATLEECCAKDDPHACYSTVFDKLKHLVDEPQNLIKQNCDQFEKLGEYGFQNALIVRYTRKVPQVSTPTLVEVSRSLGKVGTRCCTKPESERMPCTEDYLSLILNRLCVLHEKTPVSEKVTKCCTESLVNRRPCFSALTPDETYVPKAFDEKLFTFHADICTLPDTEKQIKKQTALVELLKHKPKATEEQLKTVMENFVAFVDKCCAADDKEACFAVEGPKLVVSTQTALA

The results in this text go back to publication PMC4556714, “Drug Development in Conformational Diseases: A Novel Family of Chemical Chaperones that Bind and Stabilise Several Polymorphic Amyloid Structures” (PLoS ONE, 2015).

pIC50: −log10 of the molar value.

For the substance “(2R)-2-(6-methoxy-2-naphthyl)propanoic acid”, the pIC50 is 5.04.
